Results: PubChem BioAssay AID602248 (The Scripps Research Institute Molecular Screening Center, 2012)
The list shows a part of the results, in another mix than the full data. Calls of active or inactive are those of the source. No stated cut-off is given here; in the data, active means activation above about 15%; inactive means the rest.

Assay: counter-screen for M1 agonists: effect in parental CHO-K1 cells (AID 602248);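 further: untransfected CHO-K1 host cells lacking M1 receptor as counterscreen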
Conditions: Fluo-8 calcium fluorescence, at 3 µM, stronger effect = higher value, scaled to maximal ATP response, vehicle zero

Question: Which activation does the source give for `CCN(N=Nc1nonc1N)c1nonc1N` here?
Answer: The activation was inactive: 1.14%.

Question: For `O=C(Nc1cc([As](=O)(O)O)ccc1O)c1ccccc1`, which activation is on record?
Answer: The activation was inactive: 0.86%.

Question: With `O=P1(N(CCCl)CCCl)OCCCS1` (stereo not drawn) as the compound, how does the activation read?
Answer: Its activation is inactive: 0.93%.

Question: With `C/C=C1/C[C@@H](C)[C@](O)(CO)C(=O)OCC2=CCN3CC[C@@H](OC1=O)[C@@H]23` as the compound, how does the activation read?
Answer: Its activation is inactive: -0.27%.

Question: With `O=C(O)CNc1ccc([As](=O)(O)O)cc1` as the compound, how does the activation read?
Answer: The activation was inactive: 0.22%.

Question: Which activation does the source give for `O=[N+]([O-])c1cccc(NC2=NCC(CBr)S2)c1` (stereo not drawn) here?
Answer: Its activation is inactive: 0.72%.

Question: Which activation does the source give for `COC(=O)C1(C)COP(=O)(Nc2ccccc2)OC1` (stereo not drawn) here?
Answer: The activation was inactive: 1.09%.

Question: For `O=[N+]([O-])c1ncn(CCn2ncnc2[N+](=O)[O-])n1`, which activation is on record?
Answer: The activation was inactive: 1.31%.

Question: For `CC(C)(C)C(=O)NC(Sc1ccncn1)C(Cl)(Cl)Cl` (stereo not drawn), which activation is on record?
Answer: Its activation is inactive: 0.06%.

Question: For `O=[N+]([O-])c1cc([N+](=O)[O-])c(CCNc2ccccc2)c([N+](=O)[O-])c1`, which activation is on record?
Answer: The activation was inactive: 0.27%.

Question: For `CCc1nc2c(n1)c1c(non1O)c1c2no[n+]1[O-]`, which activation is on record?
Answer: The activation was inactive: 8.59%.

Question: Which activation does the source give for `Cc1ccc(NP(=O)(Oc2ccccc2)Oc2ccccc2)nc1` here?
Answer: The activation was inactive: 0.49%.

Question: For `CC(=O)N1C2C3N(C(C)=O)C1C1N(C(C)=O)C(C(N1C(C)=O)N3C(C)=O)N2C(C)=O`, which activation is on record?
Answer: The activation was inactive: 1.01%.

Question: Which activation does the source give for `O=[N+]([O-])c1cccc2n[nH]nc12` here?
Answer: The activation was inactive: -0.3%.

Question: For `COc1ccc(C2=NCC(CBr)S2)cc1` (stereo not drawn), which activation is on record?
Answer: The activation was inactive: 2.58%.

Question: Which activation does the source give for `c1cc(-c2nn[nH]n2)ccc1-c1nn[nH]n1` here?
Answer: The activation was inactive: -0.12%.

Question: With `CC1CCN(C(=O)Oc2c(Cl)cc(Cl)c3cccnc23)CC1` as the compound, how does the activation read?
Answer: The activation was inactive: 0.49%.

Question: For `CN(C)C(=O)OCCc1n(C)cc[n+]1C`, which activation is on record?
Answer: Its activation is inactive: 0.64%.

Question: With `CC(C)=N/N=C(\N)N[N+](=O)[O-]` as the compound, how does the activation read?
Answer: Its activation is inactive: 1.08%.

Question: With `CC(C)c1nc(Nc2ccccc2)n(P(=O)(N(C)C)N(C)C)n1` as the compound, how does the activation read?
Answer: The activation was inactive: -0.15%.

Question: With `CCN(/C(=N/P(=O)(N1CCOCC1)N1CCOCC1)N1CCOCC1)c1ccc(OC)cc1` as the compound, how does the activation read?
Answer: The activation was inactive: 0.9%.

Question: Which activation does the source give for `C[N+]1=C2C=CC=CC=C2SC12C([N+](=O)[O-])=CC([N+](=O)[O-])=C[C-]2[N+](=O)[O-]` (stereo not drawn) here?
Answer: The activation was inactive: 3.92%.

Question: With `Nc1ccc([As](=O)(O)c2ccc(N)cc2)cc1` as the compound, how does the activation read?
Answer: The activation was inactive: 0.61%.
